The record followed here is patent US9763957B2, “Autotaxin inhibitors” (Novartis AG, priority 2013, dated 2017).

SMILES strings stand for the structures.

The target of the assay is Recombinant human ATX (Homo sapiens (Human), UniProt Q13822). As to the kind of experiment: ATX inhibition assay (choline release, Amplex Red fluorescence). In kind it is biochemical. The conditions noted are these: ATX 10 nM, LPC 18:1 10 μM, 37° C., 20 min pre-incubation; mean of n≧2. The protocol: Reagents—LPC (oleoyl (18:1)) was purchased from Avanti Polar Lipids (Alabaster, Ala.) and solubilized in methanol to 20 mM. Amplex Red was obtained from Invitrogen Life Technologies (Paisley, UK) and dissolved in DMSO to 10 mM. Choline oxidase and horseradish peroxidase (HRP) were obtained from Sigma Aldrich (Dorset, UK) and dissolved in HBSS to 20 U/ml and 200 U/ml respectively. All reagents were stored at −20° C. in single use aliquots. All experimental measurements were performed in assay buffer made up immediately prior to use (HBSS, 0.01% BSA essentially fatty acid free).
PerkinElmer EnVision (Fluorescence Intensity/Absorbance Monochromator) or Tecan Infinite 200 PRO series plate reader was used to detect change in fluorescent intensity.
Assessing ATX inhibition—ATX activity was determined by measurement of released choline in reactions containing ATX (10 nM), choline oxidase (0.1 U/ml), HRP (100 U/ml), amplex red (50 μM) and LPC 18:1 (10 μM). Compounds of the invention were prepared as 10 point serial dilutions from 1 μM in duplicate and pre-incubated with ATX at 37° C. for 20 minutes prior to the addition of remaining reagents. The liberated choline was measured from changes in fluorescence intensity (λex 530 nm, λem 590 nm) of the product resurofin at 37° C. every 2 minutes over a 40-minute period. ATX activity was measured as a slope of the linear portion of the progress curve, typically between 14 to 24 minutes.
Data analysis—Slope data was exported to Graphpad prism (Graphpad software, San Diego, Calif.) where data was fitted to equation 1. Y=Bottom+(Top-Bottom)/(1+10^((Log IC50−X)*HillSlope)) Equation 1: […]
With `COC1CCCN(C(=O)/C=C/c2ccc(C(F)(F)F)cc2Cn2nnc(C)n2)C1` (single isomer, unassigned) [Example 108a, ((R or S), E)-1-(3-Methoxypiperidin-1-yl)-3-(2-((5-methyl-2H-tetrazol-2-yl)methyl)-4-(trifluoromethyl)phenyl)prop-2-en-1-one], the IC50 was 58 nM.
Turning to `COC1CCCN(C(=O)/C=C/c2ccc(C(F)(F)F)cc2Cn2nnc(C)n2)C1` (single isomer, unassigned) [Example 108b, ((R or S), E)-1-(3-Methoxypiperidin-1-yl)-3-(2-((5-methyl-2H-tetrazol-2-yl)methyl)-4-(trifluoromethyl)phenyl)prop-2-en-1-one], the IC50 amounted to 61 nM.
Consider `Cc1nnn(Cc2cc(C(F)(F)F)ccc2/C=C/C(=O)N2CCCC(F)C2)n1` (single isomer, unassigned) [Example 115a, ((R or S), E)-1-(3-Fluoropiperidin-1-yl)-3-(2-((5-methyl-2H-tetrazol-2-yl)methyl)-4-(trifluoromethyl)phenyl)prop-2-en-1-one], for which the half-inhibitory concentration (IC50) worked out at 18 nM.
For `Cc1nnn(Cc2cc(C(F)(F)F)ccc2/C=C/C(=O)N2CCCC(F)C2)n1` (single isomer, unassigned) [Example 115b, ((R or S), E)-1-(3-Fluoropiperidin-1-yl)-3-(2-((5-methyl-2H-tetrazol-2-yl)methyl)-4-(trifluoromethyl)phenyl)prop-2-en-1-one] the value was 140 nM.

By IC50 is commonly meant the concentration at which inhibition is half-maximal.
